Test results published in paper PMC9723946.

Target: His-tagged full-length G3BP1 F33W (human), Q13283
Experiment: pull-down
Settings: remark: other sources report otherwise

B1: cytoplasmic activating/proliferation associated protein 1 (Caprin1), endogenous, Q14444 1-709 (natural protein)
chain: MPSATSHSGSGSKSSGPPPPSGSSGSEAAAGAGAAAPASQHPATGTGAVQTEAMKQILGVIDKKLRNLEKKKGKLDDYQERMNKGERLNQDQLDAVSKYQEVTNNLEFAKELQRSFMALSQDIQKTIKKTARREQLMREEAEQKRLKTVLELQYVLDKLGDDEVRTDLKQGLNGVPILSEEELSLLDEFYKLVDPERDMSLRLNEQYEHASIHLWDLLEGKEKPVCGTTYKVLKEIVERVFQSNYFDSTHNHQNGLCEEEEAASAPAVEDQVPEAEPEPAEEYTEQSEVESTEYVNRQFMAETQFTSGEKEQVDEWTVETVEVVNSLQQQPQAASPSVPEPHSLTPVAQADPLVRRQRVQDLMAQMQGPYNFIQDSMLDFENQTLDPAIVSAQPMNPTQNMDMPQLVCPPVHSESRLAQPNQVPVQPEATQVPLVSSTSEGYTASQPLYQPSHATEQRPQKEPIDQIQATISLNTDQTTASSSLPAASQPQVFQAGTSKPLHSSGINVNAAPFQSMQTVFNMNAPVPPVNEPETLKQQNQYQASYNQSFSSQPHQVEQTELQQEQLQTVVGTYHGSPDQSHQVTGNHQQPPQQNTGFPRSNQPYYNSRGVSRGGSRGARGLMNGYRGPANGFRGGYDGYRPSFSNTPNSGYTQSQFSAPRDYSGYQRDGYQQNFKRGSGQSGPRGAPRGRGGPPRPNRGMPQMNTQQVN
  reduction of copurification relative to WT: 98%
